Measured values from PubChem BioAssay (NCI).
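All cell lines were grown in 96-well plates and treated with compound for 48 hours. Abbreviation: GI50, concentration required for 50% inhibition of growth. TGI marks complete inhibition of growth.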

Key:
Assay in all cases: NCI-60 cell line screen, 48 h
K-562 leukemia = test system: K-562 leukemia
SF-295 CNS = test system: SF-295 CNS
IGROV1 ovarian = test system: IGROV1 ovarian
COLO 205 colon = test system: COLO 205 colon
SK-MEL-2 melanoma = test system: SK-MEL-2 melanoma
NCI-H23 lung = test system: NCI-H23 lung
HOP-92 NSCLC = test system: HOP-92 NSCLC
EKVX NSCLC = test system: EKVX NSCLC
SF-539 CNS = test system: SF-539 CNS
T-47D breast = test system: T-47D breast
PC-3 prostate = test system: PC-3 prostate
NCI-H522 lung = test system: NCI-H522 lung
BT-549 breast = test system: BT-549 breast
HOP-62 NSCLC = test system: HOP-62 NSCLC
RPMI-8226 leukemia = test system: RPMI-8226 leukemia
UO-31 renal = test system: UO-31 renal
SW-620 colon = test system: SW-620 colon
NCI/ADR-RES ovarian = test system: NCI/ADR-RES ovarian
CAKI-1 renal = test system: CAKI-1 renal
CCRF-CEM leukemia = test system: CCRF-CEM leukemia
OVCAR-5 ovarian = test system: OVCAR-5 ovarian
NCI-H226 lung = test system: NCI-H226 lung
SNB-19 CNS = test system: SNB-19 CNS
SF-268 CNS = test system: SF-268 CNS
MOLT-4 leukemia = test system: MOLT-4 leukemia
MDA-MB-435 = test system: MDA-MB-435
U251 CNS = test system: U251 CNS
LOX IMVI melanoma = test system: LOX IMVI melanoma
A498 renal = test system: A498 renal
RXF 393 renal = test system: RXF 393 renal
HS 578T breast = test system: HS 578T breast
MALME-3M melanoma = test system: MALME-3M melanoma
SK-OV-3 ovarian = test system: SK-OV-3 ovarian
HCC-2998 colon = test system: HCC-2998 colon
UACC-62 melanoma = test system: UACC-62 melanoma
786-0 renal = test system: 786-0 renal
HL-60(TB) leukemia = test system: HL-60(TB) leukemia
KM12 colon = test system: KM12 colon
TK-10 renal = test system: TK-10 renal
DU-145 prostate = test system: DU-145 prostate
MCF7 breast = test system: MCF7 breast
ACHN renal = test system: ACHN renal
HCT-116 colon = test system: HCT-116 colon
UACC-257 melanoma = test system: UACC-257 melanoma
OVCAR-4 ovarian = test system: OVCAR-4 ovarian
MDA-MB-231 breast = test system: MDA-MB-231 breast
HCT-15 colon = test system: HCT-15 colon
NCI-H322M lung = test system: NCI-H322M lung
OVCAR-8 ovarian = test system: OVCAR-8 ovarian
HT29 colon = test system: HT29 colon
NCI-H460 lung = test system: NCI-H460 lung
SK-MEL-28 melanoma = test system: SK-MEL-28 melanoma
OVCAR-3 ovarian = test system: OVCAR-3 ovarian
M14 melanoma = test system: M14 melanoma
SNB-75 CNS = test system: SNB-75 CNS
SK-MEL-5 melanoma = test system: SK-MEL-5 melanoma
A549 NSCLC = test system: A549 NSCLC
SN12C renal = test system: SN12C renal
MDA-N = test system: MDA-N
SR leukemia = test system: SR leukemia

SMILES: O=[As]c1ccc(S(=O)(=O)Nc2ccccc2)cc1 (stereo not given)
- GI50 (K-562 leukemia): 1.12 µM
- TGI (K-562 leukemia): 8.91 µM
- GI50 (SF-295 CNS): 16.2 µM
- TGI (SF-295 CNS): 30 µM
- GI50 (IGROV1 ovarian): 1.98 µM
- TGI (IGROV1 ovarian): 4 µM
- GI50 (COLO 205 colon): 1.58 µM
- TGI (COLO 205 colon): 3.42 µM
- GI50 (SK-MEL-2 melanoma): 1.81 µM
- TGI (SK-MEL-2 melanoma): 3.38 µM
- GI50 (NCI-H23 lung): 2.5 µM
- TGI (NCI-H23 lung): 7.58 µM
- GI50 (HOP-92 NSCLC): 1.57 µM
- TGI (HOP-92 NSCLC): 2.95 µM
- GI50 (EKVX NSCLC): 1.71 µM
- TGI (EKVX NSCLC): 3.75 µM
- GI50 (SF-539 CNS): 1.69 µM
- TGI (SF-539 CNS): 3.15 µM
- GI50 (T-47D breast): 0.648 µM
- TGI (T-47D breast): 3.33 µM
- GI50 (PC-3 prostate): 4.98 µM
- TGI (PC-3 prostate): 16.7 µM
- GI50 (NCI-H522 lung): 0.18 µM
- TGI (NCI-H522 lung): 0.504 µM
- GI50 (BT-549 breast): 1.73 µM
- TGI (BT-549 breast): 3.13 µM
- GI50 (HOP-62 NSCLC): 2.89 µM
- TGI (HOP-62 NSCLC): 8.84 µM
- GI50 (RPMI-8226 leukemia): 1.61 µM
- TGI (RPMI-8226 leukemia): 4.13 µM
- GI50 (UO-31 renal): 1.46 µM
- TGI (UO-31 renal): 2.82 µM
- GI50 (SW-620 colon): 1.54 µM
- TGI (SW-620 colon): 3.6 µM
- GI50 (NCI/ADR-RES ovarian): 6.25 µM
- TGI (NCI/ADR-RES ovarian): 66.4 µM
- GI50 (CAKI-1 renal): 1.76 µM
- TGI (CAKI-1 renal): 3.15 µM
- GI50 (CCRF-CEM leukemia): 0.887 µM
- TGI (CCRF-CEM leukemia): 3.46 µM
- GI50 (OVCAR-5 ovarian): 2.1 µM
- TGI (OVCAR-5 ovarian): 4.05 µM
- GI50 (NCI-H226 lung): 2.06 µM
- TGI (NCI-H226 lung): 4.71 µM
- GI50 (SNB-19 CNS): 2.62 µM
- TGI (SNB-19 CNS): 7.54 µM
- GI50 (SF-268 CNS): 1.75 µM
- TGI (SF-268 CNS): 3.35 µM
- GI50 (MOLT-4 leukemia): 2.37 µM
- TGI (MOLT-4 leukemia): 6.7 µM
- GI50 (MDA-MB-435): 1.63 µM
- TGI (MDA-MB-435): 3.08 µM
- GI50 (U251 CNS): 1.75 µM
- TGI (U251 CNS): 3.36 µM
- GI50 (LOX IMVI melanoma): 1.73 µM
- TGI (LOX IMVI melanoma): 3.22 µM
- GI50 (A498 renal): 2.58 µM
- TGI (A498 renal): 10.7 µM
- GI50 (RXF 393 renal): 1.69 µM
- TGI (RXF 393 renal): 3.06 µM
- GI50 (HS 578T breast): 2.87 µM
- TGI (HS 578T breast): 17.2 µM
- GI50 (MALME-3M melanoma): 1.67 µM
- TGI (MALME-3M melanoma): 3.33 µM
- GI50 (SK-OV-3 ovarian): 11.9 µM
- TGI (SK-OV-3 ovarian): 24.6 µM
- GI50 (HCC-2998 colon): 2 µM
- TGI (HCC-2998 colon): 4.06 µM
- GI50 (UACC-62 melanoma): 1.83 µM
- TGI (UACC-62 melanoma): 3.42 µM
- GI50 (786-0 renal): 1.55 µM
- TGI (786-0 renal): 2.95 µM
- GI50 (HL-60(TB) leukemia): 1.27 µM
- TGI (HL-60(TB) leukemia): 4.07 µM
- GI50 (KM12 colon): 3.5 µM
- TGI (KM12 colon): 12.4 µM
- GI50 (TK-10 renal): 1.88 µM
- TGI (TK-10 renal): 3.33 µM
- GI50 (DU-145 prostate): 3.54 µM
- TGI (DU-145 prostate): 12.3 µM
- GI50 (MCF7 breast): 1.19 µM
- TGI (MCF7 breast): 3.31 µM
- GI50 (ACHN renal): 1.8 µM
- TGI (ACHN renal): 3.31 µM
- GI50 (HCT-116 colon): 1.93 µM
- TGI (HCT-116 colon): 3.55 µM
- GI50 (UACC-257 melanoma): 1.72 µM
- TGI (UACC-257 melanoma): 3.65 µM
- GI50 (OVCAR-4 ovarian): 1.89 µM
- TGI (OVCAR-4 ovarian): 4.67 µM
- GI50 (MDA-MB-231 breast): 1.54 µM
- TGI (MDA-MB-231 breast): 3.14 µM
- GI50 (HCT-15 colon): 1.39 µM
- TGI (HCT-15 colon): 2.99 µM
- GI50 (NCI-H322M lung): 7.46 µM
- TGI (NCI-H322M lung): 20.3 µM
- GI50 (OVCAR-8 ovarian): 2.75 µM
- TGI (OVCAR-8 ovarian): 8.47 µM
- GI50 (HT29 colon): 2.43 µM
- TGI (HT29 colon): 6.52 µM
- GI50 (NCI-H460 lung): 17.5 µM
- TGI (NCI-H460 lung): 37.6 µM
- GI50 (SK-MEL-28 melanoma): 1.71 µM
- TGI (SK-MEL-28 melanoma): 3.35 µM
- GI50 (OVCAR-3 ovarian): 1.71 µM
- TGI (OVCAR-3 ovarian): 3.16 µM
- GI50 (M14 melanoma): 2.03 µM
- TGI (M14 melanoma): 4.04 µM
- GI50 (SNB-75 CNS): 1.53 µM
- TGI (SNB-75 CNS): 2.87 µM
- GI50 (SK-MEL-5 melanoma): 1.88 µM
- TGI (SK-MEL-5 melanoma): 3.71 µM
- GI50 (A549 NSCLC): 18.6 µM
- TGI (A549 NSCLC): 37.6 µM
- GI50 (SN12C renal): 1.8 µM
- TGI (SN12C renal): 3.49 µM

SMILES: CCOC(=O)NC(=S)N(C)P(=S)(OCC)N(C)C(=S)NC(=O)OCC
- TGI (K-562 leukemia): > 100 µM
- TGI (SF-295 CNS): > 100 µM
- TGI (IGROV1 ovarian): > 100 µM
- TGI (COLO 205 colon): > 100 µM
- TGI (SK-MEL-2 melanoma): > 100 µM
- TGI (NCI-H23 lung): > 100 µM
- TGI (HOP-92 NSCLC): > 100 µM
- TGI (EKVX NSCLC): > 100 µM
- TGI (SF-539 CNS): > 100 µM
- TGI (MDA-N): > 100 µM
- TGI (PC-3 prostate): > 100 µM
- TGI (NCI-H522 lung): > 100 µM
- TGI (BT-549 breast): > 100 µM
- TGI (HOP-62 NSCLC): > 100 µM
- TGI (RPMI-8226 leukemia): > 100 µM
- TGI (UO-31 renal): > 100 µM
- TGI (SW-620 colon): > 100 µM
- TGI (NCI/ADR-RES ovarian): > 100 µM
- TGI (CAKI-1 renal): > 100 µM
- TGI (CCRF-CEM leukemia): > 100 µM
- TGI (OVCAR-5 ovarian): > 100 µM
- TGI (NCI-H226 lung): > 100 µM
- TGI (SNB-19 CNS): > 100 µM
- TGI (MOLT-4 leukemia): > 100 µM
- TGI (MDA-MB-435): > 100 µM
- TGI (U251 CNS): > 100 µM
- TGI (LOX IMVI melanoma): > 100 µM
- TGI (A498 renal): > 100 µM
- TGI (RXF 393 renal): > 100 µM
- TGI (MALME-3M melanoma): > 100 µM
- TGI (SK-OV-3 ovarian): > 100 µM
- TGI (HCC-2998 colon): > 100 µM
- TGI (UACC-62 melanoma): > 100 µM
- TGI (786-0 renal): > 100 µM
- TGI (HL-60(TB) leukemia): > 100 µM
- TGI (KM12 colon): > 100 µM
- TGI (DU-145 prostate): > 100 µM
- TGI (MCF7 breast): > 100 µM
- TGI (ACHN renal): > 100 µM
- TGI (HCT-116 colon): > 100 µM
- TGI (UACC-257 melanoma): > 100 µM
- TGI (OVCAR-4 ovarian): > 100 µM
- TGI (MDA-MB-231 breast): > 100 µM
- TGI (NCI-H322M lung): > 100 µM
- TGI (OVCAR-8 ovarian): > 100 µM
- TGI (HT29 colon): > 100 µM
- TGI (SK-MEL-28 melanoma): > 100 µM
- TGI (OVCAR-3 ovarian): > 100 µM
- TGI (M14 melanoma): > 100 µM
- TGI (SNB-75 CNS): > 100 µM
- TGI (SK-MEL-5 melanoma): > 100 µM
- TGI (SR leukemia): > 100 µM
- TGI (A549 NSCLC): > 100 µM
- TGI (SN12C renal): > 100 µM
